The assay deals with T1, COX-I (Homo sapiens, UniProt P23219).
T1 construct: Fresh blood was collected by syringe without anticoagulants from volunteers with consent; from tissue; host or cells: fresh human whole blood from volunteers, no anticoagulant, allowed to clot
Put plainly: Whole blood assay for COX-I (TXB2 production). It counts as cell-based. The following applies: 1 hr at 37 C. The protocol:
Fresh blood was collected by syringe without anticoagulants from volunteers with consent. The subjects had no apparent inflammatory conditions and had not taken any medication for at least 7 days prior to blood collection. 500 μl aliquots of human whole blood were immediately incubated with 2 μl of either DMSO vehicle or a test compound at final concentrations for 1 hr at 37 C. to allow the blood to clot. Appropriate treatments (no incubation) were used as blanks. At the end of the incubation, 5 μl of 250 mM Indomethacin was added to stop the reaction. The blood was centrifuged at 6000×g for 5 min at 4 C to obtain serum. A 100 μl aliquot of serum was mixed with 400 μl methanol for protein precipitation. The supernatant was obtained by centrifuging at 6000×g for 5 min at 4 C and was assayed for TXB2 using an enzyme immunoassay kit according to the manufacturer's procedure. For a test compound, the results were expressed as percent inhibition of TXB2 production relative to control incubations containing DMSO vehicle. The data were analyzed by that a test compound at the indicated concentrations was changed log value and was applied simple linear regression. IC50 value was calculated by least squares method.

By UniProt entry, the sequences of proteins in these tests, tags left out. Residues count along the entry.
UniProt P23219, 24-599: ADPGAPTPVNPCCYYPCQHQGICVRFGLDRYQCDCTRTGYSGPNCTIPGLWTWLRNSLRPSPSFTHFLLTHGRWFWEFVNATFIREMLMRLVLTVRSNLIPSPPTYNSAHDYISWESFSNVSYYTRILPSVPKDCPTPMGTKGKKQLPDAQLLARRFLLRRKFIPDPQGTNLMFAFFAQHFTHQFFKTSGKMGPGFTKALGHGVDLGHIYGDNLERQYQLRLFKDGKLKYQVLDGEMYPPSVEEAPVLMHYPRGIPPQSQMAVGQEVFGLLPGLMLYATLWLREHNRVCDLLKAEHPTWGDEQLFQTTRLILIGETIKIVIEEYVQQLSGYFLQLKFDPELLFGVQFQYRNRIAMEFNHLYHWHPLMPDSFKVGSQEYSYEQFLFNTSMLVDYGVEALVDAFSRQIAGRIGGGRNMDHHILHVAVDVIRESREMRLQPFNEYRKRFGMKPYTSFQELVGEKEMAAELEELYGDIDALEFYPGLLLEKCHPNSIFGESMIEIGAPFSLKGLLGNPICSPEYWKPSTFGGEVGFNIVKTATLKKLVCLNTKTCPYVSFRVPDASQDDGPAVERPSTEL

Where only a bound is given, the exact number is not on record here.

By IC50 is commonly meant the concentration needed to halve the response being measured. High values mean weaker potency in that assay, low ones greater potency in that assay. Molecule `COc1ccc(-c2nc(OCC(F)(F)F)nn2-c2ccc(OC)cc2)cc1` [Example 13, 1,5-bis(4-methoxyphenyl)-3-(2,2,2-trifluoroethoxy)-1H-1,2,4-triazole] registered an IC50 of less than 10 nM.

In the case of `COc1ccc(-c2nc(OCF)nn2-c2ccc(OC)cc2)cc1` [Example 24, 1,5-bis(4-methoxyphenyl)-3-(fluoromethoxy)-1H-1,2,4-triazole], the IC50 is less than 10 nM.

In turn, `COc1ccc(-c2nc(OC)nn2-c2ccc(OC)cc2)cc1` [5(4), 3-Methoxy-1,5-bis(4-methoxyphenyl)-1H-1,2,4-triazole] showed an IC50 of less than 10 nM.

(Values after US6927230B2, “Triazole derivatives” (Fujisawa Pharmaceutical Co., Ltd., priority 2001, dated 2005).)
